Data reported in patent US6121271A, “Naphtho[2,3-B]heteroar-4-yl derivatives” (American Home Products Corporation, priority 1999, dated 2000).

The chains behind the UniProt entries cited, without tags or fusion partners. Where a name states a change or a piece, a line headed by the entry shows the natural chain unless it says otherwise.
UniProt P18031: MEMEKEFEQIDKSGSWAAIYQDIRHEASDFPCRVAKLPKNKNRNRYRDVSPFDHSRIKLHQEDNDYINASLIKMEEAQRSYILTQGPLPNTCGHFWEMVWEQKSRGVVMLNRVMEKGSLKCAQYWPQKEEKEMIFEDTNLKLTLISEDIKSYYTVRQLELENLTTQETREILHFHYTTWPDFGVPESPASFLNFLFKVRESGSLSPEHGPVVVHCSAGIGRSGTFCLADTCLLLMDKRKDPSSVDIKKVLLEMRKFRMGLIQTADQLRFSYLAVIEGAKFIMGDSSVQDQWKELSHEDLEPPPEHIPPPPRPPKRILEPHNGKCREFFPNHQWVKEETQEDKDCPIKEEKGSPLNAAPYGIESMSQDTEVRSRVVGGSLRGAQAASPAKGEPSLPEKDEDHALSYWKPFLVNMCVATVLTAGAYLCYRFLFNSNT

Target: recombinant, human protein tyrosine phosphatase (PTP) 1B (Homo sapiens, UniProt P18031)
Assay: Inhibition of tri-phosphorylated insulin receptor dodecaphosphopeptide dephosphorylation by hPTP1B (malachite green-ammonium molybdate method)
Details: 50 μM IR triphosphopeptide substrate, 37° C.

Substance: Ammonium molybdate tetrahydrate
- IC50: 8.7 µM
